Here are results for one substance from patent EP0538248B1, “TETRAHYDROISOQUINOLINYLCARBAMATES OF 1,2,3,3A,8,8A-HEXAHYDRO-1,3A,8-TRIMETHYLPYRROLO [2,3-B]INDOLE” (priority 1990, dated 1992).

A word on the IC50: it is the concentration needed to halve the response being measured. A low value points to higher potency.

For this test, the target named is T1, acetylcholinesterase (Rattus norvegicus, UniProt P37136).
T1 sequence (P37136 32-614): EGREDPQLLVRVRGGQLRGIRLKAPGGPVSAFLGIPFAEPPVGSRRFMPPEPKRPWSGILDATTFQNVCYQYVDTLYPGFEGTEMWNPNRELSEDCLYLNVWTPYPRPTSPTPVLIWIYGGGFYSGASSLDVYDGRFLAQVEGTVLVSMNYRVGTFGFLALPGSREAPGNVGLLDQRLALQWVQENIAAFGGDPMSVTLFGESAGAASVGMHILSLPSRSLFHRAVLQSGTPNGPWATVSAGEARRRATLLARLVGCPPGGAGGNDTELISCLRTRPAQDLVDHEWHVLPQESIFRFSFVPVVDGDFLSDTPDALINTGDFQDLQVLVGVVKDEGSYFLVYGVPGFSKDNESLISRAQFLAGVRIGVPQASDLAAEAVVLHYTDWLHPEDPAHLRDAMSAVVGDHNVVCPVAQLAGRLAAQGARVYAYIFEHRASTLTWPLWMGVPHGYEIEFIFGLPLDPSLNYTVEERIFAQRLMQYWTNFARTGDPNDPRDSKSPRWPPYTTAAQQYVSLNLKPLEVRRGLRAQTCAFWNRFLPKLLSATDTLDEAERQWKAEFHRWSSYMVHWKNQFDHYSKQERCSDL
Conditions: AChE in vitro. Here is the method:
Cholinesterases are found throughout the body, both in the brain and in serum. However, only brain acetylcholinesterase (AChE) distribution is correlated with central cholinergic innervation.
The method described below was used in this invention for assaying cholinesterase activity. This is a modification of the method of Ellman et al., Biochem. Pharmacol. 7, 98 (1961).
• A. Reagents - • 1. 0.05 M Phosphate buffer, pH 7.2 • (a) 6.85 g NaH2PO4•H2O/100 ml distilled H2O • (b) 13.40 g Na2HPO4•7H2O/100 ml distilled H2O • (c) add (a) to (b) until pH reaches 7.2 • (d) Dilute 1:10 • 2. Substrate in buffer • (a) 198 mg acetylthiocholine chloride (10 mM) • (b) q.s to 100 ml with 0.05 M phosphate buffer, pH 7.2 (reagent 1) • 3. DTNB in buffer • (a) 19.8 mg 5,5-dithiobisnitrobenzoic acid (DTNB) (0.5 mM) • (b) q.s. to 100 ml with 0.05 M phosphate buffer, pH 7.2 (reagent 1) • 4. […] If active, IC50 values are determined from the inhibitory activity of subsequent concentrations. • B. Tissue Preparation- Male Wistar rats are decapitated, brains rapidly removed, copora striata disected free, weighed and homogenized in 19 volumes (approximately 7 mg protein/ml) of 0.05 M phosphate buffer, pH 7.2 using a Potter-Elvehjem homogenizer. […] Assay- Enzyme activity is measured with the Beckman DU-50 spectrophotometer. […]

On to “(3aS-cis)-1,2,3,3a,8,8a-hexahydro-1,3a,8-trimethylpyrrolo[2,3-b]indol-5-ol,(1,2,3,4-tetrahydroisoquinolinyl)carbamate [Compound A]”, for which the IC50 is 36 nM.
